The target in the experiment is T1, adenylyl cyclase 1 (AC1) (Bos taurus, UniProt P19754).
T1 construct: made in house; host or cells: Sf9 cells (baculovirus); membranes used
Kind of experiment: Adenylyl cyclase assay, recombinant AC1 in Sf9 cell membranes. It is filed as biochemical, bovine. The following applies: peptide at 100 μM; CaM 100 nM; read-out: inhibition of Ca2+/CaM-stimulated AC1 activity by peptide itself. The text has this: Expression of G-Protein Subunits And Adenylyl Cyclases. Gβγ was purified from bovine brain (Dingus et al., 1994, Meth. Enzymol. 237, 457-471). Q227L-Gαs was expressed in rabbit reticulocyte lysates. AC2 was expressed in Sf9 cells by infection with recombinant baculovirus (Jacobowitz and Iyengar, 1994, Proc. Natl. Acad. Sci. U.S.A. 91, 10630-10634). AC2 assays have been described (Chen et al., 1995, Science 268, 1166-1169). Bovine AC1 (Jacobowitz et al., 1993, J. Biol. Chem. 268, 3829-3832) was epitope tagged at the N terminus with the FLAG epitope (Jacobowitz and Iyengar, 1994, Proc. Natl. Acad. Sci. U.S.A. 91, 10630-10634) and expressed in Sf9 cells by baculovirus infection.
Adenylyl Cyclase Assays. AC2 assays have been described (Chen et al., 1995, Science 268, 1166-1169). When required the peptides were mixed with adenylyl cyclase containing membranes and held on ice for 10 min prior to assays. Approximately 1-4 μg of AC2 Sf9 cell membranes per assay tube was used. All assays contained a mixture of protease inhibitors. The final concentration of each inhibitor was leupeptin at 3.2 μg/ml, aprotinin at 2 μg/ml, phenanthroline at 1.0 mM, and phenylmethylsulfonyl fluoride at 1.0 mM. To study Gβγ inhibition, AC1-containing Sf9 cell membranes (1-4 μg per assay tube) was used. […]

Amino acid sequences for entries named in this document (tags omitted). A change or cut given only in a name is not applied to a line headed by its entry.
UniProt P19754: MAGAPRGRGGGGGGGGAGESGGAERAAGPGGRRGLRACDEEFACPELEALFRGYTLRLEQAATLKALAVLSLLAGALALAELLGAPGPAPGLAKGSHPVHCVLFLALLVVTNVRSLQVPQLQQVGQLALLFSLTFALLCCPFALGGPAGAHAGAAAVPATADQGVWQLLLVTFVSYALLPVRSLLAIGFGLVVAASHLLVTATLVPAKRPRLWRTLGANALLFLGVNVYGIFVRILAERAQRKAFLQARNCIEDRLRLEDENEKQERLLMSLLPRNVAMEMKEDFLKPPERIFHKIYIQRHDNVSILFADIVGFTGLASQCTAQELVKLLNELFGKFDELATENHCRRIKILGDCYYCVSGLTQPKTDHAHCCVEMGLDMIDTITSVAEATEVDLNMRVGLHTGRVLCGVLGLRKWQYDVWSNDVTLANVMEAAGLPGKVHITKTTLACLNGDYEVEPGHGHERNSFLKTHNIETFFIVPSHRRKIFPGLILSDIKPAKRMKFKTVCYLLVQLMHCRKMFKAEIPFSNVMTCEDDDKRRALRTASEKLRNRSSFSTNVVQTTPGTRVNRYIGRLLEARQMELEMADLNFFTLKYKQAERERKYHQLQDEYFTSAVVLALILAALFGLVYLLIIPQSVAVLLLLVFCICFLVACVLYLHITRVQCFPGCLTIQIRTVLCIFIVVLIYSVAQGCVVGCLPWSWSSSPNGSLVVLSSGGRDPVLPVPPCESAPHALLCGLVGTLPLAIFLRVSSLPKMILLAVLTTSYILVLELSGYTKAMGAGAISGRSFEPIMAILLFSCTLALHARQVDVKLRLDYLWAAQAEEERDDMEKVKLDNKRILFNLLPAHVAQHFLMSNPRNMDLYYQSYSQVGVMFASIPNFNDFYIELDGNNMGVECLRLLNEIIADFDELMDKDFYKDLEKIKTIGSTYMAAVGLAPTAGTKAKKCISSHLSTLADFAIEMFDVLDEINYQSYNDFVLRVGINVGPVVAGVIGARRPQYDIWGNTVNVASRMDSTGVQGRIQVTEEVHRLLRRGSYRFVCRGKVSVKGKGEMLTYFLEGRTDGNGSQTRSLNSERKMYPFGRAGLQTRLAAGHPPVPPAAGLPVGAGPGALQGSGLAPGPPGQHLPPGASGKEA

Turning to `CC[C@H](C)[C@H](NC(=O)[C@H](C)NC(=O)[C@H](Cc1c[nH]cn1)NC(=O)[C@@H](NC(=O)[C@H](CCCCN)NC(=O)[C@H](CC(N)=O)NC(=O)[C@@H](NC(=O)[C@@H](N)[C@@H](C)O)[C@@H](C)O)C(C)C)C(=O)N1CCC[C@H]1C(=O)N[C@@H](CC(C)C)C(=O)N[C@@H](CCCNC(=N)N)C(=O)N[C@@H](CO)C(=O)N[C@@H](CO)C(=O)N[C@@H](Cc1c[nH]c2ccccc12)C(=O)N[C@H](C(=O)N[C@@H](CCSC)C(=O)N[C@H](C(=O)N[C@@H](CS)C(=O)N[C@@H](C)C(=O)N[C@@H](Cc1ccc(O)cc1)C(=O)O)[C@@H](C)O)C(C)C` [Gβ86-105], the inhibition at 100 µM is 50 to 70%.

Values taken from patent US6555522B1, “Peptides and other small molecules derived from regions of interacting proteins and uses thereof” (Mount Sinai School of Medicine of the City of New York, priority 1998, dated 2003).
